Values quoted from earlier work, collected in patent publication US20110256229A1, “RAPID-ACTING PHARMACEUTICAL COMPOSITION” (published 2011).

Conditions: lozenge, transbucchal; Farrar et al. 1998

CCC(=O)N(c1ccccc1)C1CCN(CCc2ccccc2)CC1
Time to peak plasma concentrations: around 20 minutes

This is a selection: effects in other tests are not listed, and their absence says nothing.
